Test results as given in PubChem BioAssay (EPA / NIEHS).
Values joined by “and” are separate entries in the source; they are usually repeats but may differ in a detail not shown here. Equal values may be shown once. The list shows a part of the results, in another mix than the full data. Some compounds were tested as several samples or in several runs, with calls that do not always agree. Active and inactive are the calls of the source. The calls were made as follows: active = hit-call score of the fitted dose curve at least 0.9, where 1 is the maximum; inactive = score below 0.9.

Chains of the proteins cited; added tags and fusions are not shown. Lines headed by an entry give the natural chain unless they say otherwise; changes in a name come on top.
UniProt P13500, whole entry, looked up: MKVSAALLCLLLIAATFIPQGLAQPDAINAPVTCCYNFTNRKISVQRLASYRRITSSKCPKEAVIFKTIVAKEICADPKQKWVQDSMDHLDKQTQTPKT
UniProt P16581: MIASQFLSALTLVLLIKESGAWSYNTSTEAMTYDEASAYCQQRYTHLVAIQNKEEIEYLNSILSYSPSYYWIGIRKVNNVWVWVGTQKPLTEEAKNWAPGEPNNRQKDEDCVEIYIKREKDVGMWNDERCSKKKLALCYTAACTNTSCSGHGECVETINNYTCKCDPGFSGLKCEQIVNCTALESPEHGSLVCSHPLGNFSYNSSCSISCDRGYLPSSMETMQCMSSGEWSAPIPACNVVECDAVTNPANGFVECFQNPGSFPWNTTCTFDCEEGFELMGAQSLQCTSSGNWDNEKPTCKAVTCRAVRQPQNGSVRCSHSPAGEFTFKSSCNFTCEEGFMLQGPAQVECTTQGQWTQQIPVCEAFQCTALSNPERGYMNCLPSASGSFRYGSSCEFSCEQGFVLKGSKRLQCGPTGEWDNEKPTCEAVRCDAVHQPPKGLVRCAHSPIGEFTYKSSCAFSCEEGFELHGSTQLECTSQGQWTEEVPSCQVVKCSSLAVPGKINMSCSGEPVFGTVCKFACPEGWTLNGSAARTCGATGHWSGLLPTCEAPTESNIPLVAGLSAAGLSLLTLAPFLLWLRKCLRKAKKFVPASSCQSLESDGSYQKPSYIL

Tests used:
[1] = read-out: Interferon-gamma inducible Protein 10 (IP10), CXCL10 (gene 3627); assay: BSK_KF3CT_IP10: BioMAP Diversity Plus: KF3CT Assay for Interferon-gamma inducible Protein 10 (IP10) Biomarker Activity (AID 2283068); details: actives raise or lower the signal; primary human keratinocytes with fibroblasts
Procedure: BSK_KF3CT is a cell-based, multiplexed-readout assay that uses keratinocytes and foreskin fibroblasts, a human skin primary cell co-culture, with measurements taken at 24 hours after chemical dosing in a 96-well plate.BSK_KF3CT_IP10 is an assay component measured in the BSK_KF3CT assay. It measures IP-10 antibody related to regulation of gene expression using ELISA technology.Data from the assay component BSK_KF3CT_IP10 was analyzed into 1 assay endpoint. This assay endpoint, BSK_KF3CT_IP10, was analyzed with bidirectional fitting relative to DMSO as the negative control and baseline of activity. Using a type of binding reporter, gain or loss-of-signal activity can be used to understand changes in the signaling as they relate to the gene CXCL10. Furthermore, this assay endpoint can be referred to as a primary readout, because this assay has produced multiple assay endpoints where this one serves a signaling function. To generalize the intended target to other relatable targets, this assay endpoint is annotated to the cytokine intended target family, where the subfamily is chemotactic factor.
(§1) The levels of cell surface (or secreted, indicated by the prefix "s") biomarker endpoints were measured by ELISA. Overt cytotoxicity to cells in confluent adherent cultures (all systems other than the BT system) was assessed by measuring total protein levels using sulforhodamine B (SRB) staining in parallel cultures at the time of biomarker measurements, indicated as SRB endpoints. For proliferation assays for adherent cell types, individual cell types are cultured at sub-confluence and relative cell numbers quantified by SRB staining at time points optimized for each system (48 h: 3C and CASM3C systems; 72 h: BT and HDF3CGF systems; 96 h: SAg system). SRB was performed by staining cells with 0.1% SRB after fixation with 10% TCA and reading wells at 560 nm.Viability and proliferation of PBMC (T cells) was quantified by Alamar Blue reduction for the SAg and BT systems. For PBMC viability (referred to as PBMC Cytotoxicity within the assay endpoint names), cells were plated (75,000/well in a 96-well plate) and then chemical samples added for 1 h before addition of activators, SEB and TSST-1 (20 ng/mL final concentration each). Cells were incubated for 90 h. Then, Alamar Blue (20 uL/well) (Invitrogen, Cat DAL1100) was added for 6 h, and the plates were read with a fluorescence microplate reader at 546/580 nm (excitation/emission). For PBMC proliferation, cells were plated and activated as above but incubated for only 16 h prior to addition of Alamar Blue. Plates were read after 6 h.

[2] = BSK_KF3CT_SRB: Viability Assessment in the BioMAP Diversity Plus: KF3CT Assay (AID 2283069); details: primary human keratinocytes with fibroblasts;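 also: read 24 h after compound addition; fitted for both signal gain and loss against DMSO baseline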
Summary of the method: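 Overt cytotoxicity is assessed as total protein by sulforhodamine B staining in parallel human skin co-cultures at 24 h after dosing. DMSO serves as negative control and baseline.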

[3] = read-out: Interleukin-1 alpha (IL1a), IL1A (gene 3552); assay: BSK_KF3CT_IL1a: BioMAP Diversity Plus: KF3CT Assay for Interleukin-1 alpha (IL1a) Biomarker Activity (AID 2283070); details: actives raise or lower the signal; primary human keratinocytes with fibroblasts
Summary of the method: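 Readout is IL-1a level by ELISA, compared bidirectionally with DMSO as baseline. Cells: human keratinocytes co-cultured with foreskin fibroblasts, harvested 24 h post-dose.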

[4] = read-out: TIMP metallopeptidase inhibitor 2 (TIMP2), TIMP2 (gene 7077); assay: BSK_KF3CT_TIMP2: BioMAP Diversity Plus: KF3CT Assay for TIMP metallopeptidase inhibitor 2 (TIMP2) Biomarker Activity (AID 2283071); details: actives raise or lower the signal; primary human keratinocytes with fibroblasts
Procedure: BSK_KF3CT is a cell-based, multiplexed-readout assay that uses keratinocytes and foreskin fibroblasts, a human skin primary cell co-culture, with measurements taken at 24 hours after chemical dosing in a 96-well plate.BSK_KF3CT_TIMP2 is an assay component measured in the BSK_KF3CT assay. It measures TIMP-2 antibody related to regulation of gene expression using ELISA technology.Data from the assay component BSK_KF3CT_TIMP2 was analyzed into 1 assay endpoint. This assay endpoint, BSK_KF3CT_TIMP2, was analyzed with bidirectional fitting relative to DMSO as the negative control and baseline of activity. Using a type of binding reporter, gain or loss-of-signal activity can be used to understand changes in the signaling as they relate to the gene TIMP2. Furthermore, this assay endpoint can be referred to as a primary readout, because this assay has produced multiple assay endpoints where this one serves a signaling function. To generalize the intended target to other relatable targets, this assay endpoint is annotated to the protease inhibitor intended target family, where the subfamily is metalloproteinase inhibitor.
as §1

[5] = read-out: Transforming growth factor beta 1 (TGFb1), TGFB1 (gene 7040); assay: BSK_KF3CT_TGFb1: BioMAP Diversity Plus: KF3CT Assay for Transforming growth factor beta 1 (TGFb1) Biomarker Activity (AID 2283072); details: actives raise or lower the signal; primary human keratinocytes with fibroblasts
Summary of the method: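 KF3CT co-culture (keratinocytes + fibroblasts), 24 h exposure → TGF-b1 ELISA → bidirectional fit, DMSO = baseline. Parallel SRB total-protein staining (0.1% SRB, 10% TCA fixation, 560 nm) for cytotoxicity.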

[6] = read-out: C-C motif chemokine 2 (Homo sapiens) (UniProt P13500); assay: BSK_KF3CT_MCP1: BioMAP Diversity Plus: KF3CT Assay for Monocyte Chemoattractant Protein 1 (MCP1/CCL2) Biomarker Activity (AID 2283073); details: actives raise or lower the signal; primary human keratinocytes with fibroblasts
Summary of the method: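 Human keratinocyte plus foreskin fibroblast primary co-culture exposed to chemical for 24 h. MCP-1 levels measured by ELISA. Bidirectional curve fitting relative to DMSO negative control as baseline.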

[7] = read-out: Matrix Metallopeptidase 9 (MMP9), MMP9 (gene 4318); assay: BSK_KF3CT_MMP9: BioMAP Diversity Plus: KF3CT Assay for Matrix Metallopeptidase 9 (MMP9) Biomarker Activity (AID 2283074); details: actives raise or lower the signal; primary human keratinocytes with fibroblasts;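 as to AC50: MMP9 protein level quantified by ELISA in the co-culture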
Summary of the method: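 Values come from bidirectional fitting relative to DMSO of MMP-9 levels, which were measured by ELISA. Measurements were taken 24 h after chemical dosing of a keratinocyte and foreskin fibroblast co-culture.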

[8] = read-out: urokinase plasminogen activator (uPA), PLAU (gene 5328); assay: BSK_KF3CT_uPA: BioMAP Diversity Plus: KF3CT Assay for urokinase plasminogen activator (uPA) Biomarker Activity (AID 2283075); details: actives raise or lower the signal; primary human keratinocytes with fibroblasts
Procedure: BSK_KF3CT is a cell-based, multiplexed-readout assay that uses keratinocytes and foreskin fibroblasts, a human skin primary cell co-culture, with measurements taken at 24 hours after chemical dosing in a 96-well plate.BSK_KF3CTA is an assay component measured in the BSK_KF3CT assay. It measures uPA antibody related to regulation of gene expression using ELISA technology.Data from the assay component BSK_KF3CTA was analyzed into 1 assay endpoint. This assay endpoint, BSK_KF3CTA, was analyzed with bidirectional fitting relative to DMSO as the negative control and baseline of activity. Using a type of binding reporter, gain or loss-of-signal activity can be used to understand changes in the signaling as they relate to the gene PLAU. Furthermore, this assay endpoint can be referred to as a primary readout, because this assay has produced multiple assay endpoints where this one serves a signaling function. To generalize the intended target to other relatable targets, this assay endpoint is annotated to the protease intended target family, where the subfamily is serine protease.
as §1

[9] = read-out: CD40, CD40 (gene 958); assay: BSK_LPS_CD40: BioMAP Diversity Plus: LPS Assay for CD40 Biomarker Activity (AID 2283076); details: actives raise or lower the signal; primary human HUVEC with PBMC
Summary of the method: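 Primary human umbilical vein endothelial cells co-cultured with peripheral blood mononuclear cells, LPS-stimulated, were dosed with chemical and read 24 h later. CD40 levels were measured by ELISA and fitted bidirectionally against DMSO as negative control and baseline.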

[10] = read-out: E-selectin (Homo sapiens) (UniProt P16581); assay: BSK_LPS_Eselectin: BioMAP Diversity Plus: LPS Assay for Eselectin Biomarker Activity (AID 2283077); details: actives raise or lower the signal; primary human HUVEC with PBMC
Summary of the method: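 Human umbilical vein endothelial cells co-cultured with peripheral blood mononuclear cells under LPS stimulation; E-selectin measured by ELISA 24 h after chemical dosing. Activity fitted bidirectionally against DMSO as negative control and baseline.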

Measured: AC50

O=C(Cl)Oc1ccccc1
inactive: all assays above

O=[N+]([O-])c1ccc([N+](=O)[O-])cc1
active: [9] 4.42 µM
inactive: all other assays above

CC(C)OP(=S)(OC(C)C)SCCNS(=O)(=O)c1ccccc1
inactive: [1] | [3] | [4] | [5] | [6] | [8]
active: [1] 30.8 µM | [2] 14.9 µM and 21.3 µM and 14.1 µM | [6] 14.4 µM and 12.1 µM | [9] 30.1 µM and 32.2 µM and 31.2 µM

O=C1C2CC=CCC2C(=O)N1SC(Cl)(Cl)C(Cl)Cl (centres undefined)
active: [1] 1.88 µM | [2] 1.64 µM | [3] 3.96 µM | [4] 2 µM | [5] 3.27 µM | [6] 3.31 µM | [7] 2.15 µM | [8] 3.72 µM | [9] 13.3 µM

Cc1cc([N+](=O)[O-])cc([N+](=O)[O-])c1O
inactive: all assays above

CN(C(=O)Cc1cccc2occc12)[C@H]1CC[C@@]2(CCCO2)C[C@@H]1N1CCCC1
inactive: all assays above
